Laboratory results reported in patent US6417210B1, “Treatment of dyskinesias and Parkinson's disease with riluzole and levodopa” (MOR-Research Applications Ltd., priority 1998, dated 2002).

System: patients suffering from advanced Parkinson's disease with severe levodopa-induced dyskinesias

Nc1nc2ccc(OC(F)(F)F)cc2s1 [Riluzole, 2-amino-6-trifluoromethoxy benzothiazole]
Reduction of mean daily waking hours spent in severe dyskinesias (during treatment versus before treatment, 0.01<p<0.05 paired t-test): about 30% | Decrease of mean daily waking hours spent with dyskinesias (during treatment versus before treatment, P<0.01 paired t-test): about 24% | Mean daily waking hours spent with dyskinesias (during treatment with riluzole up to 50 mg b.i.d., six patients, before treatment 6.92±3.67 hours, P<0.01 paired t-test): 5.26 ± 4.23 h | Mean daily waking hours spent in severe dyskinesias (during treatment with riluzole, before treatment 2.76±1.77 hours, 0.01<p<0.05 paired t-test): 1.94 ± 2.40 h | Attenuation of dyskinesias (result in words) (open-label, six patients): effective in attenuating the dyskinesias
